{
  "sequences": {"note": "Amino acid sequences for entries named in this document (tags omitted).", "UniProt P25025, whole entry": "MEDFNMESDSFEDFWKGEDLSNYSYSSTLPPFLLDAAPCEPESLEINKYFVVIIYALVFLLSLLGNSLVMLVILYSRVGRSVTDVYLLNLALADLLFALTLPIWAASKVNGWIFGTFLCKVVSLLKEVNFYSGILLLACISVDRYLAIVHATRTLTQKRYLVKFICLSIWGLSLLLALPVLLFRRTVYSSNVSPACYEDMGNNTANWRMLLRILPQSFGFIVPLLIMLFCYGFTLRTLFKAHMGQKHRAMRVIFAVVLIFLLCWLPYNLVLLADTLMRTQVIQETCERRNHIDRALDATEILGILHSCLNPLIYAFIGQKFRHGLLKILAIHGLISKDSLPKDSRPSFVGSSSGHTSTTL", "UniProt P25024, whole entry": "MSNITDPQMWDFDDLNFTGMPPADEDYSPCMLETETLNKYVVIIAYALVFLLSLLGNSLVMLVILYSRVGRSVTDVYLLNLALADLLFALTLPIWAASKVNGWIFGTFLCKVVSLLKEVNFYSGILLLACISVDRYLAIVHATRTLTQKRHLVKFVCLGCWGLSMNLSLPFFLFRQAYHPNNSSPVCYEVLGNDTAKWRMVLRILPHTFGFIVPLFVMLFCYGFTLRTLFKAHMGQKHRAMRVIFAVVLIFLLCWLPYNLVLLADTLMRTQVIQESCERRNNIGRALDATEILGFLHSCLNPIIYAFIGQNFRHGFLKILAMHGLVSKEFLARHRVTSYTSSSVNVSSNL"},
  "source": "ChEMBL document CHEMBL3425456",
  "about": "“Boronic acid-containing CXCR1/2 antagonists: Optimization of metabolic stability, in vivo evaluation, and a proposed receptor binding model” (Bioorg Med Chem Lett, 2015)",
  "key": {"[1]": {"biological_target": "Interleukin-8 receptors, CXCR1/CXCR2 (Homo sapiens, UniProt P25025+P25024)", "experiment": "Antagonist activity at CXCR1/CXCR2 in human PMN cells assessed as inhibition of GROalpha-mediated intracellular calcium release", "assay_type": "functional, cell-based"}, "[2]": {"biological_target": "T1, C-X-C chemokine receptor type 2 (Homo sapiens, UniProt P25025)", "experiment": "Inhibition of CXCR2 (unknown origin) transfected with RBL cells", "assay_type": "cell-based", "how_it_was_run": "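RBL cells stably transfected with CXCR2 were used to measure antagonist activity at the receptor.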"}, "[3]": {"biological_target": "C-X-C chemokine receptor type 1 (Homo sapiens, UniProt P25024)", "experiment": "Inhibition of CXCR1 (unknown origin) transfected with RBL cells", "assay_type": "cell-based"}, "[4]": {"biological_target": "T1, C-X-C chemokine receptor type 2", "experiment": "Inhibition of CXCR2 (unknown origin) expressed in PathHunter celline by beta-arrestin assay", "how_it_was_run": "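Antagonist-mode PathHunter β-arrestin recruitment assay in CXCR2-expressing cells. SB225002 served as the reference antagonist. Read-out is an IC50.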"}},
  "data": [
    {"compound": "O=C(Nc1ccc(F)cc1)c1ccc(SCc2cc(OC(F)(F)F)ccc2B(O)O)nc1", "values": [
      {"measurement": "IC50", "setting": "[1]", "value": 22, "unit": "nM"},
      {"measurement": "IC50", "setting": "[2]", "value": 21, "unit": "nM"},
      {"measurement": "IC50", "setting": "[3]", "value": 31, "unit": "nM"},
      {"measurement": "IC50", "setting": "[4]", "value": 130, "unit": "nM"}
    ]}
  ]
}
